Measured values as given in patent US20160168540A1, “COMPOSITION FOR MAINTAINING PLATELET FUNCTION” (KYOTO UNIVERSITY, priority 2013, published 2016).

Protein sequences, listed by entry. Tags and fused reporters are not part of them. Residues count along the entry.
UniProt P78536, 215-824 limits assumed: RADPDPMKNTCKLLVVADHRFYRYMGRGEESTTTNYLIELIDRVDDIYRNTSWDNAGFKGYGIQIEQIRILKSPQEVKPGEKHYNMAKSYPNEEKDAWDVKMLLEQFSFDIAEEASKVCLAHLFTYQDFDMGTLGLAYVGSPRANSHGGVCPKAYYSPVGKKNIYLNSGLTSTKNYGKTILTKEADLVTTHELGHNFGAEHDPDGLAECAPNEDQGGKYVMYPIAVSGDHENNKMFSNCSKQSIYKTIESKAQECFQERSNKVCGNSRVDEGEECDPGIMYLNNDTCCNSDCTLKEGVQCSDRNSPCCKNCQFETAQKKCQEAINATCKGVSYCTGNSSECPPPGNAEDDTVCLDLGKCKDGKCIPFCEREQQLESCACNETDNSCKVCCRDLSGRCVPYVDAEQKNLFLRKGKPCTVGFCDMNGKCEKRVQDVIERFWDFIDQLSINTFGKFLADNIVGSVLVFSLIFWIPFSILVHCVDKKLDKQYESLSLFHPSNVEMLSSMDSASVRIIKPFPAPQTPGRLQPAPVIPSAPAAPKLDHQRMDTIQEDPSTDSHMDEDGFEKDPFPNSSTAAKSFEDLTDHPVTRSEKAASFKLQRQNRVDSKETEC

Target: TACE (ADAM17) (Homo sapiens, UniProt P78536)
Experiment: TACE (ADAM17) inhibition test
Format: biochemical
Details: read-out: TACE IC50; fluorescent synthetic substrate, 37° C. for 1.5 hours
Text: The nucleotide sequence of TACE has been reported by Moss et al. (Moss, M. L. et al., Nature 1997, vol. 385, pp. 733-736). Based on this information, the cDNA of TACE was obtained according to the prescribed method from THP-1 cells or the like, and then incorporated the cDNA into an expression vector. Next, this vector was transformed into mammalian cells or insect cells, and TACE protein was expressed. The TACE protein was isolated, and used as an enzyme. Further, a fluorescent synthetic substrate Nma(N-methylanthranilic acid)-Leu-Ala-Gln-Ala-Val-Arg-Ser-Ser-Lys(Dnp(dinitrophenyl))-D-Arg-NH2 including the TACE-cleaved sequence of a membrane-bound TNF was used as a substrate. […] Enzyme activity was then determined by measuring with a fluorescence intensity meter (Labsystems, Fluoroskan Ascent) at an excitation wavelength of 355 nm and a measurement wavelength of 460 nm. […]

Cc1cccn(CC2(c3ccc(/C=C/C4CCCCC4)cc3)NC(=O)NC2=O)c1=O (racemic)
IC50: > 100 nM
